Experimental data from ChEMBL document CHEMBL5126672, “Discovery of κ Opioid Receptor (KOR)-Selective d-Tetrapeptides with Improved In Vivo Antinociceptive Effect after Peripheral Administration” (ACS Med Chem Lett, 2022).

Columns and labels:
[1] = system: Mus musculus; assay: Antinociceptive activity in CD-1 mouse assessed as maximum possible effect at 10 nmol, icv measured after 15 to 120 mins by tail-flick test; format: functional, organism-based; settings: time 15-120 min
Method in brief: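 Tail flick test in mice after intracerebroventricular injection of 10 nmol/mouse, with vehicle-treated and U50,488H control groups. Antinociception was expressed as maximum possible effect. N = 7 per group.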

[2] = system: Mus musculus; assay: Antinociceptive activity in CD-1 mouse assessed as maximum possible effect at 20 umol/kg, iv measured after 15 to 120 mins by tail-flick test; format: functional, organism-based; settings: dose 20.0 µmol/kg, time 15-120 min
Method in brief: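 Intravenous dosing at 20 μmol/kg in mice, followed by tail flick testing with antinociception expressed as maximum possible effect. Vehicle-treated animals served as controls. N = 8.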

CN(C(=O)Cc1ccc(Cl)c(Cl)c1)C1CCCCC1N1CCCC1 (configuration not stated)
Activity [1]: Active
Activity [2]: Active

Activity calls are given as the source filed them. The calls are words filed in the database; no cut-off is given here.
